Measurements: US20250367283A1, “MEVALONATE PATHWAY INHIBITOR AS HIGHLY-EFFICIENT VACCINE ADJUVANT” (Tsinghua University, priority 2015, published 2025)

Protein sequences, listed by entry. Tags and fused reporters are not part of them.
UniProt P14324, whole entry: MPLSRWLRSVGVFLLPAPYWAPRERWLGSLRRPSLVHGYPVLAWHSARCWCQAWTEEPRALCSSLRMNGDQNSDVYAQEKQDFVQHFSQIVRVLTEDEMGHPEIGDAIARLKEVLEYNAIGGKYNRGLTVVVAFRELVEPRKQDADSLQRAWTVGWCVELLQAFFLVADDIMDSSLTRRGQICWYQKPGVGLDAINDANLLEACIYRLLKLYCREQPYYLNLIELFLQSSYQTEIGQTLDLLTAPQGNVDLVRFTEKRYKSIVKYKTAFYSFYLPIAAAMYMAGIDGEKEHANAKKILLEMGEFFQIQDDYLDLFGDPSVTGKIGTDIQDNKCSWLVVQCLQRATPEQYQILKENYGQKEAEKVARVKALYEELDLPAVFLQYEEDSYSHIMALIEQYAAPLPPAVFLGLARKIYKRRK

The compounds below were run against humanized farnesyl pyrophosphate synthase (HsFPPS) (Homo sapiens (Human), UniProt P14324) (assay: In vitro HsFPPS enzyme activity assay). Settings: read-out: IC50 for inhibition of FPPS; TH-Z97 series.

Compound	IC50 [nM]
COc1ccn2c(CC(O)(P(=O)(O)O)P(=O)(O)O)cnc2c1	160
CCCCCCCCOc1ccn2c(CC(O)(P(=O)(O)O)P(=O)(O)O)cnc2c1	150
CCCCCOc1ccn2c(CC(O)(P(=O)(O)O)P(=O)(O)O)cnc2c1	70
CCOc1ccn2c(CC(O)(P(=O)(O)O)P(=O)(O)O)cnc2c1	80
CCCCCCCCCCOc1ccn2c(CC(O)(P(=O)(O)O)P(=O)(O)O)cnc2c1	> 5000
CCCCCCCCCCCOc1ccn2c(CC(O)(P(=O)(O)O)P(=O)(O)O)cnc2c1	> 5000
CCCOc1ccn2c(CC(O)(P(=O)(O)O)P(=O)(O)O)cnc2c1	130
CCCCOc1ccn2c(CC(O)(P(=O)(O)O)P(=O)(O)O)cnc2c1	60
CCCCCCCCCOc1ccn2c(CC(O)(P(=O)(O)O)P(=O)(O)O)cnc2c1	5000
CCCCCCCCCCCCOc1ccn2c(CC(O)(P(=O)(O)O)P(=O)(O)O)cnc2c1	> 5000
CCCCCCCOc1ccn2c(CC(O)(P(=O)(O)O)P(=O)(O)O)cnc2c1	170
